{"sequences": {"note": "By UniProt entry, the sequences of proteins in these tests, tags left out. Residues count along the entry.", "UniProt P00750, 36-562": "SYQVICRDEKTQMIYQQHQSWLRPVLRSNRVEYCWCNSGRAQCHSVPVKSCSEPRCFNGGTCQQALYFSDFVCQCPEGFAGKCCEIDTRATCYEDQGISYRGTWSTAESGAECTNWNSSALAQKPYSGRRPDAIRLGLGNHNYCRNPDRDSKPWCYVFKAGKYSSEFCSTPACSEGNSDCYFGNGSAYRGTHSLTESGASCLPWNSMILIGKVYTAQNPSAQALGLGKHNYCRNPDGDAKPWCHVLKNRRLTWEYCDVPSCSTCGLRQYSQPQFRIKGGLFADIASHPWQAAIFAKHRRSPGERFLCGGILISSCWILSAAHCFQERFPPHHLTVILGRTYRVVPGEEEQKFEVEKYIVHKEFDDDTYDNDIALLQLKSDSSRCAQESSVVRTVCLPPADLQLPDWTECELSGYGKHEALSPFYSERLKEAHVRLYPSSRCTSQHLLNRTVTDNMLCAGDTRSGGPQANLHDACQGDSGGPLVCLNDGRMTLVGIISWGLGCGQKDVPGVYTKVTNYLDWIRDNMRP"}, "source": "patent US20080220446A1", "about": "“Method for Detecting and/or Removing Protein and/or Peptide Comprising a Cross-Beta Structure From an Aqueous Solution Comprising a Protein” (priority 2005, published 2008)", "key": {"[1]": {"experiment": "Thioflavin T fluorescence of protein solutions", "type": "physicochemical", "procedure": "(§1) Fluorescence of ThT—protein/peptide adducts was measured as follows. Solutions of 25 μg ml^−1 of protein or peptide preparations were prepared in 50 mM glycine buffer pH 9.0 with 25 μM ThT. Fluorescence was measured at 485 nm upon excitation at 435 nm. Background signals from buffer, buffer with ThT and protein/peptide solution without ThT were subtracted from corresponding measurements with protein solution incubated with ThT. Regularly, fluorescence of Aβ was used as a positive control, and fluorescence of FP10, a non-amyloid fibrin fragment^16, was used as a negative control. Fluorescence was measured in triplicate on a Hitachi F-4500 fluorescence spectrophotometer (Ltd., Tokyo, Japan).\nFormulated protein therapeutics were obtained from the local hospital pharmacy and were used as supplied by the manufacturers. […] Lyophilized therapeutics were dissolved according to the manufacturers recommendations. GH, zinc-insulin, Cealb and gelatin were stored at −20, 4, room temperature, 37 and 65° C. Other protein therapeutics were only kept at 4° C., and assayed for the presence of cross-β structure at shown time points. Enhancement in fluorescence of ThT and Congo red was measured with all formulated protein therapeutics. For this purpose, proteins were diluted to the indicated concentrations. In addition, tPA binding to the protein therapeutics was analyzed by ELISA and activation of tPA was tested using the Plg-activation assay. Zinc-insulin was diluted tenfold in the activation assay, GH was diluted to a final concentration of 500 μg ml^−1. Activation of factor XII and prekallikrein by the therapeutics was tested in the chromogenic factor XII assay (see above). For tPA ELISAs, 5 μg ml^−1 of the protein therapeutics were coated onto Greiner high-binding Microlon plates (#655092, Greiner Bio-One, Alphen a/d Rijn, The Netherlands). After coating, plates were blocked with Blocking Reagent (Roche Diagnostics, Almere, The Netherlands). A concentration series of tPA or K2P-tPA in PBS with 0.1% v/v Tween-20 and 10 mM ε-amino caproic acid was applied and the plates were incubated for 1 h at room temperature with constant swirling. Binding of tPA was assessed with monoclonal antibody 374b that binds to the protease domain of both tPA and K2P-tPA (American Diagnostica, Tebu-Bio, The Netherlands), peroxidase-conjugated rabbit anti-mouse immunoglobulins (RAMPO, P0260, DAKOCytomation, Glostrup, Denmark), and stained with 3′3′5′5′-tetramethylbezidine (TMB, catalogue number 4501103, buffer, catalogue number 4501401, Biosource Int., Camarillo, Calif., USA).\nThT fluorescence of β2GPI was measured as follows. […] CL vesicles were prepared according to an established procedure. Briefly, CL was dried under a stream of nitrogen. […] In the ThT fluorescence assay, fluorescence of β2GPI in buffer, of CL or DXS500k in buffer, of buffer and ThT alone, and of β2GPI-CL adducts and β2GPI-DXS500k adducts, with or without ThT, was recorded as described above (section ThT fluorescence). In addition, TEM images were recorded with CL, β2GPI from human plasma, with or without CL, and with recombinant β2GPI, as described^5.\nTo prepare structurally altered ovalbumin (OVA) with amyloid cross-β structures, purified OVA (Sigma, A-7641, lot 071k7094) was heated to 85° C. […] Native OVA (nOVA) and heat-denatured OVA (dOVA) were tested in the ThT fluorescence assay and in the Plg-activation assay. In the fluorescence assay and in the Plg-activation assay, 25 and 100 μg ml^−1 nOVA and dOVA were tested, respectively. […]"}, "[2]": {"experiment": "ThT fluorescence enhancement by biopharmaceuticals", "type": "physicochemical", "settings": "+/− SD; five μL of protein therapeutic", "procedure": "as §1, with “Solutions of 25 μg ml^−1 of protein or peptide preparations were prepared in 50 mM glycine buffer pH 9.0 with 25 μM ThT.” left out\nβ2-GPI was reduced and alkylated as follows. Sixhundredforty μl of β2-GPI stock was mixed with 640 μl of 8 M Urea (cooled solution) in 0.1 M Tris pH-8.2. […]\n(§2) Protein therapeutics were obtained from the local hospital pharmacy and analyzed within the expiry limits as stated by the manufacturers.\nFluorescence of Thioflavin T (ThT; Sigma T-3516, St. Louis, Mo., USA) and Congo red (CR; Aldrich Chemical Company Inc., Milwaukee, Wis., USA) was measured on a Hitachi F-4500 spectrophotometer at an excitation wavelength of 435 nm and emission wavelength of 485 nm for ThT and an excitation wavelength of 550 nm and emission wavelength of 595 nm for Congo red. […] Fluorescence was measured in triplicate. Background fluorescence of both protein in buffer and dye-solution were subtracted from the total fluorescence signal. […]"}, "[3]": {"experiment": "Congo red fluorescence enhancement by biopharmaceuticals", "type": "physicochemical", "settings": "+/− SD; five μL of protein therapeutic", "procedure": "(§3) Background signals from buffer, buffer with Congo red and protein/peptide solution without Congo red were subtracted from corresponding measurements with protein solution incubated with Congo red. Fluorescence was measured in triplicate on a Hitachi F-4500 fluorescence spectrophotometer (Ltd., Tokyo, Japan).\nas §2\nFluorescence of Thioflavin T (ThT; Sigma T-3516, St. Louis, Mo., USA) and Congo red (CR; Aldrich Chemical Company Inc., Milwaukee, Wis., USA) was measured on a Hitachi F-4500 spectrophotometer at an excitation wavelength of 435 nm and emission wavelength of 485 nm for ThT and an excitation wavelength of 550 nm and emission wavelength of 595 nm for Congo red. […] Fluorescence was measured in triplicate. Background fluorescence of both protein in buffer and dye-solution were subtracted from the total fluorescence signal. Five μg/mL fibrillar amyloid-β(1-40) E22Q (Peptide Synthesis Facility of the Dutch Cancer Institute NKI, Amsterdam, The Netherlands) was used as a positive control in all fluorescence assays."}, "[4]": {"experiment": "Congo red fluorescence of protein solutions", "type": "physicochemical", "settings": "stored at the recommended storage temperature of 4° C.", "procedure": "as §3, with “Solutions of 25 μg ml^−1 protein/peptide were incubated with 25 μM Congo red in PBS and fluorescence was measured at 590 nm upon excitation at 550 nm. Background” for “Background”\nFormulated protein therapeutics were obtained from the local hospital pharmacy and were used as supplied by the manufacturers. […] Lyophilized therapeutics were dissolved according to the manufacturers recommendations. […] Enhancement in fluorescence of ThT and Congo red was measured with all formulated protein therapeutics. […] In addition, tPA binding to the protein therapeutics was analyzed by ELISA and activation of tPA was tested using the Plg-activation assay. […] Binding of tPA was assessed with monoclonal antibody 374b that binds to the protease domain of both tPA and K2P-tPA (American Diagnostica, Tebu-Bio, The Netherlands), peroxidase-conjugated rabbit anti-mouse immunoglobulins (RAMPO, P0260, DAKOCytomation, Glostrup, Denmark), and stained with 3′3′5′5′-tetramethylbezidine (TMB, catalogue number 4501103, buffer, catalogue number 4501401, Biosource Int., Camarillo, Calif., USA)."}, "tPA": {"biological_target": "tPA (Homo sapiens, UniProt P00750)", "experiment": "Plasminogen-activation assay (tPA activation, S-2251)", "type": "biochemical", "settings": "Example 4; native, heat-denatured or alkylated preparation as labelled", "procedure": "Plasmin (Pls) activity was assayed as described^16. Peptides and proteins that were tested for their stimulatory ability were regularly used at 100 μg ml^−1. The tPA and plasminogen (Plg) concentrations were 200 μM and 1.1 μM, respectively, unless stated differently. Chromogenic substrate S-2251 (Chromogenix, Instrumentation Laboratory SpA, Milano, Italy) was used to measure Pls activity. Conversion of zymogen factor XII (#233490, Calbiochem, EMD Biosciences, Inc., San Diego, Calif.) to proteolytically active factor XII (factor XIIa) was assayed by measurement of the conversion of chromogenic substrate Chromozym-PK (Roche Diagnostics, Almere, The Netherlands) by kallikrein. Chromozym-PK was used at a concentration of 0.3 mM. […] The conversion of Chromozym-PK was recorded kinetically at 37° C. for at least 60 minutes. […] In control wells factor XII was omitted from the assay solutions and no conversion of Chromozym-PK was detected. […]\nFormulated protein therapeutics were obtained from the local hospital pharmacy and were used as supplied by the manufacturers. […] Enhancement in fluorescence of ThT and Congo red was measured with all formulated protein therapeutics. […] In addition, tPA binding to the protein therapeutics was analyzed by ELISA and activation of tPA was tested using the Plg-activation assay. […]"}, "[5]": {"settings": "Example 4, native, heat-denatured or alkylated preparation as labelled"}}}
{"substance": "Albumin: human albumin, plasma purified drug product (Cealb, Sanquin-CLB)", "values": [{"measurement": "enhancement of ThT fluorescence", "setting": "[1]; stored at 4° C.", "result": "enhance fluorescence of ThT"}, {"measurement": "Fluorescence ThT", "setting": "[2]", "result": "1970 +/− 5 a.u."}, {"measurement": "Fluorescence CR", "setting": "[3]", "result": "978 +/− 2 a.u."}, {"measurement": "enhancement of Congo red fluorescence", "setting": "[4]", "result": "enhanced the fluorescence of Congo red"}]}
{"substance": "alkylated MSA: reduced-alkylated murine serum albumin [reference compound]", "values": [{"measurement": "enhancement of ThT fluorescence", "setting": "[1]; [5]", "result": "enhance ThT fluorescence to a similar extent"}, {"measurement": "presence of cross-β structure conformation", "setting": "[1]; conclusion from ThT fluorescence, Plg-activation assay and TEM", "result": "comprise the cross-β structure conformation"}]}
{"substance": "heat-denatured MSA: murine serum albumin heat denatured at 85° C. [reference compound]", "values": [{"measurement": "enhancement of ThT fluorescence", "setting": "[1]; [5]", "result": "enhance ThT fluorescence to a similar extent"}]}
{"substance": "native MSA: murine serum albumin [reference compound]", "values": [{"measurement": "enhancement of ThT fluorescence", "setting": "[1]; [5]", "result": "enhanced ThT fluorescence to some extent"}, {"measurement": "tPA activating potential", "setting": "tPA", "result": "not reflected by stimulation of tPA activation"}]}
